# AlphaSeq binding of Ab-91 heavy chain variants to a spike HR2 peptide

Values reported by Engelhart et al. 2022, doi:10.1038/s41597-022-01779-4 (FLAb copy).

Target: peptide PDVDLGDISGINAS, taken from heptad repeat 2 (HR2) of SARS-CoV-2 spike.

Each scFv is VL, three GGGGS repeats, VH, as in the parent Ab-91, and differs from it in the CDRs of the heavy chain only.
VL: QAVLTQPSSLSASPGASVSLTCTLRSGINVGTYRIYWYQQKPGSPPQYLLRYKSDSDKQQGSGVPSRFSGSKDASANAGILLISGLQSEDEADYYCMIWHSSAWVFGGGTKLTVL
VH: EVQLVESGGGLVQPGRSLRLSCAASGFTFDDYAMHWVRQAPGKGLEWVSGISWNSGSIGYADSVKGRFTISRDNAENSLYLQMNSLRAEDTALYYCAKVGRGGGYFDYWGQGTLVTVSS

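Phage display of a naive human antibody library on the peptide gave the parent. Library AAYL51 holds single substitutions and randomly drawn double and triple substitutions in the CDRs. AlphaSeq pools MATa yeast showing the antibodies with MATalpha yeast showing the peptide. Binding brings cells together so that they mate, and sequencing counts the barcode pairs among the diploids. Scores were corrected for input abundance and mapped to Kd with protein pairs of known affinity run in the same pool. The assay was run in three technical replicates.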

Variants are written as CDR1, CDR2 and CDR3 of the heavy chain (limits as in the source). Parent: GFTFDDYAMH, GISWNSGSIGYADSVK, VGRGGGYFDY. This list gathers variants with a substitution at F29 (VH, numbered from residue 1). Kd is apparent (estimated from mating counts) and averaged on the log scale over replicates with a signal. Smaller is tighter. Where no diploid with the target was found in any replicate, the entry reads "nd": below detection, most likely a poor binder, though not proof of it. Order: sorted from the lowest average up, undetected variants last.

For GFTMDDYAMH | GISWNSGSIGYAPSVK | VGQGGGYFDY, the assay gave 9.9 nM (1 of 3 replicates). For GFTEDDYAMH | GISQNSGAIGYADSVK | VGRGGGYFDY, the assay gave 64 nM (1 of 3 replicates). For YFTNDDYAMH | GISWNHGSIGYADSVK | VGRGGGYFDY, the assay gave 2.1 µM (2 of 3 replicates). Variant GFTKDDYLMH | GISNNSGSIGYADSVK | VGRGGGYFDY gave 2.4 µM (2 of 3 replicates). Variant GRTMDDYAMH | GISWNSGSIGYADSVN | VGRGGGYFDY gave 5.7 µM (3 of 3 replicates). Variant GFTLDDYHMH | GISWNSGSIGYADSVK | VGRGGGYFDY showed 9.7 µM (1 of 3 replicates). With GGTQDDYAMH | GISWNSGSIGYADSVK | VGRGGGYFDY the result was 18 µM (1 of 3 replicates). With GGTNDDYAMH | GISWMSGSIGYADSVK | VGRGGGYFDY the result was 27 µM (2 of 3 replicates). Variant GFTRDDYAMH | GISWNSGSIGYADSVK | VGRGGGYFNC gave 31 µM (3 of 3 replicates).

Variant GFTADDYAMH | GFSWNSGSIGYADSVK | VMRGGGYFDY gave 35 µM (1 of 3 replicates). Variant GFTIDDYAMW | GISWNSGSIGYADSVK | VLRGGGYFDY showed 40 µM (1 of 3 replicates). For GFTYDDYAMH | GISWNSGMIGYAHSVK | VGRGGGYFDY, the assay gave 55 µM (3 of 3 replicates). With GFTWDDYAMH | GISWNSGSIGYNDSVK | VGRGGGYFDY the result was 56 µM (1 of 3 replicates). Variant GFTNDDYAMH | GGSWVSGSIGYADSVK | VGRGGGYFDY showed 57 µM (1 of 3 replicates). Variant GFTADDYAMI | CISWNSGSIGYADSVK | VGRGGGYFDY gave 62 µM (1 of 3 replicates). Variant GFFVDDYAMH | GISWNSGSIGYADSVK | VGRGGGYFDY gave 67 µM (3 of 3 replicates). For GFTIDDYAMH | GIVWCSGSIGYADSVK | VGRGGGYFDY, the assay gave 110 µM (1 of 3 replicates). For GFTNDDYEMH | GISWNSGSIGYADSVK | VGRGGGYFDY, the assay gave 180 µM (1 of 3 replicates).

Variant GFTIDDYAMH | GISWNSGIIGYADSVP | VGRGGGYFDY gave 200 µM (1 of 3 replicates). Variant GFTDDDYAMH | GISWNSGSIGYGDSSK | VGRGGGYFDY gave 250 µM (2 of 3 replicates). Variant GFTPDDYAYH | GISWNSGSIGYADSVK | VGGGGGYFDY gave 420 µM (3 of 3 replicates). Variant GFTWWDYAMH | GISTNSGSIGYADSVK | VGRGGGYFDY showed 490 µM (1 of 3 replicates). With GATPDDDAMH | GISWNSGSIGYADSVK | VGRGGGYFDY the result was 740 µM (3 of 3 replicates). Variant GFTCDDYAMH | GISWNSGSIGYADSVK | VGRGGGYPDY showed 1.4 mM (1 of 3 replicates). Variant GFTVDDYAMH | GISWNSGSIGYADSVK | VGRDGGFFDY gave nd (0 of 3 replicates). With GFTPDDYAMH | GISWNSWDIGYADSVK | VGRGGGYFDY the result was nd (0 of 3 replicates). Variant GFTGDDYAMH | GISWNSGSIGYADSVK | VGAGGGYFDY gave nd (0 of 3 replicates).

For GFTCDDYAMH | GISWFSGSIGYADSVK | VGRGGGYFDY, the assay gave nd (0 of 3 replicates). Variant GFTPDDYAMH | GISWNSLSIGYMDSVK | VGRGGGYFDY gave nd (0 of 3 replicates). For GFTWDDYAMH | GISGNSGSIGYADSVK | VGRLGGYFDY, the assay gave nd (0 of 3 replicates). For GFTNDDYAMH | GISWNSGSIGYADSVK | VGRGSGYFDY, the assay gave nd (0 of 3 replicates). With GFTKDDYAMH | GISWNSGSIGYADSVK | VKRGGGYFDP the result was nd (0 of 3 replicates). Variant GFTTDDYAMH | GISWNSGSIGYADSVK | VGRTGGYFDY showed nd (0 of 3 replicates). Variant GFTRDDYAMH | SISWNSGSIGYAGSVK | VGRGGGYFDY showed nd (0 of 3 replicates). With GFTPDDYAQH | GIDWNSGSIGYADSVK | VGRGGGYFDY the result was nd (0 of 3 replicates).

Again, the first 4 entries without any signal:

The variant GFTVDDYAMH | GISWNSGSIGYADSVK | VGRDGGFFDY gave nd (0 of 3 replicates).
The variant GFTPDDYAMH | GISWNSWDIGYADSVK | VGRGGGYFDY gave nd (0 of 3 replicates).
The variant GFTGDDYAMH | GISWNSGSIGYADSVK | VGAGGGYFDY gave nd (0 of 3 replicates).
The variant GFTCDDYAMH | GISWFSGSIGYADSVK | VGRGGGYFDY gave nd (0 of 3 replicates).

Empty control strains, which show no peptide, gave a signal in 21% of pairings with library AAYL51; the median was 34 µM and 95% of these signals were weaker than 1.8 µM. No background was subtracted. For reference, the parent read 72 nM as the reference entry and 7.5 nM as a member of this library.